Among the data in US6780883B2, “Amide inhibitors of microsomal triglyceride transfer protein” (Warner-Lambert Company, priority 1998, dated 2004) are IC50 values, retold here.

Sequences of proteins named here, by UniProt entry; tags and fusion partners are left off. Residues count along the entry.
UniProt P04114, 28-4563: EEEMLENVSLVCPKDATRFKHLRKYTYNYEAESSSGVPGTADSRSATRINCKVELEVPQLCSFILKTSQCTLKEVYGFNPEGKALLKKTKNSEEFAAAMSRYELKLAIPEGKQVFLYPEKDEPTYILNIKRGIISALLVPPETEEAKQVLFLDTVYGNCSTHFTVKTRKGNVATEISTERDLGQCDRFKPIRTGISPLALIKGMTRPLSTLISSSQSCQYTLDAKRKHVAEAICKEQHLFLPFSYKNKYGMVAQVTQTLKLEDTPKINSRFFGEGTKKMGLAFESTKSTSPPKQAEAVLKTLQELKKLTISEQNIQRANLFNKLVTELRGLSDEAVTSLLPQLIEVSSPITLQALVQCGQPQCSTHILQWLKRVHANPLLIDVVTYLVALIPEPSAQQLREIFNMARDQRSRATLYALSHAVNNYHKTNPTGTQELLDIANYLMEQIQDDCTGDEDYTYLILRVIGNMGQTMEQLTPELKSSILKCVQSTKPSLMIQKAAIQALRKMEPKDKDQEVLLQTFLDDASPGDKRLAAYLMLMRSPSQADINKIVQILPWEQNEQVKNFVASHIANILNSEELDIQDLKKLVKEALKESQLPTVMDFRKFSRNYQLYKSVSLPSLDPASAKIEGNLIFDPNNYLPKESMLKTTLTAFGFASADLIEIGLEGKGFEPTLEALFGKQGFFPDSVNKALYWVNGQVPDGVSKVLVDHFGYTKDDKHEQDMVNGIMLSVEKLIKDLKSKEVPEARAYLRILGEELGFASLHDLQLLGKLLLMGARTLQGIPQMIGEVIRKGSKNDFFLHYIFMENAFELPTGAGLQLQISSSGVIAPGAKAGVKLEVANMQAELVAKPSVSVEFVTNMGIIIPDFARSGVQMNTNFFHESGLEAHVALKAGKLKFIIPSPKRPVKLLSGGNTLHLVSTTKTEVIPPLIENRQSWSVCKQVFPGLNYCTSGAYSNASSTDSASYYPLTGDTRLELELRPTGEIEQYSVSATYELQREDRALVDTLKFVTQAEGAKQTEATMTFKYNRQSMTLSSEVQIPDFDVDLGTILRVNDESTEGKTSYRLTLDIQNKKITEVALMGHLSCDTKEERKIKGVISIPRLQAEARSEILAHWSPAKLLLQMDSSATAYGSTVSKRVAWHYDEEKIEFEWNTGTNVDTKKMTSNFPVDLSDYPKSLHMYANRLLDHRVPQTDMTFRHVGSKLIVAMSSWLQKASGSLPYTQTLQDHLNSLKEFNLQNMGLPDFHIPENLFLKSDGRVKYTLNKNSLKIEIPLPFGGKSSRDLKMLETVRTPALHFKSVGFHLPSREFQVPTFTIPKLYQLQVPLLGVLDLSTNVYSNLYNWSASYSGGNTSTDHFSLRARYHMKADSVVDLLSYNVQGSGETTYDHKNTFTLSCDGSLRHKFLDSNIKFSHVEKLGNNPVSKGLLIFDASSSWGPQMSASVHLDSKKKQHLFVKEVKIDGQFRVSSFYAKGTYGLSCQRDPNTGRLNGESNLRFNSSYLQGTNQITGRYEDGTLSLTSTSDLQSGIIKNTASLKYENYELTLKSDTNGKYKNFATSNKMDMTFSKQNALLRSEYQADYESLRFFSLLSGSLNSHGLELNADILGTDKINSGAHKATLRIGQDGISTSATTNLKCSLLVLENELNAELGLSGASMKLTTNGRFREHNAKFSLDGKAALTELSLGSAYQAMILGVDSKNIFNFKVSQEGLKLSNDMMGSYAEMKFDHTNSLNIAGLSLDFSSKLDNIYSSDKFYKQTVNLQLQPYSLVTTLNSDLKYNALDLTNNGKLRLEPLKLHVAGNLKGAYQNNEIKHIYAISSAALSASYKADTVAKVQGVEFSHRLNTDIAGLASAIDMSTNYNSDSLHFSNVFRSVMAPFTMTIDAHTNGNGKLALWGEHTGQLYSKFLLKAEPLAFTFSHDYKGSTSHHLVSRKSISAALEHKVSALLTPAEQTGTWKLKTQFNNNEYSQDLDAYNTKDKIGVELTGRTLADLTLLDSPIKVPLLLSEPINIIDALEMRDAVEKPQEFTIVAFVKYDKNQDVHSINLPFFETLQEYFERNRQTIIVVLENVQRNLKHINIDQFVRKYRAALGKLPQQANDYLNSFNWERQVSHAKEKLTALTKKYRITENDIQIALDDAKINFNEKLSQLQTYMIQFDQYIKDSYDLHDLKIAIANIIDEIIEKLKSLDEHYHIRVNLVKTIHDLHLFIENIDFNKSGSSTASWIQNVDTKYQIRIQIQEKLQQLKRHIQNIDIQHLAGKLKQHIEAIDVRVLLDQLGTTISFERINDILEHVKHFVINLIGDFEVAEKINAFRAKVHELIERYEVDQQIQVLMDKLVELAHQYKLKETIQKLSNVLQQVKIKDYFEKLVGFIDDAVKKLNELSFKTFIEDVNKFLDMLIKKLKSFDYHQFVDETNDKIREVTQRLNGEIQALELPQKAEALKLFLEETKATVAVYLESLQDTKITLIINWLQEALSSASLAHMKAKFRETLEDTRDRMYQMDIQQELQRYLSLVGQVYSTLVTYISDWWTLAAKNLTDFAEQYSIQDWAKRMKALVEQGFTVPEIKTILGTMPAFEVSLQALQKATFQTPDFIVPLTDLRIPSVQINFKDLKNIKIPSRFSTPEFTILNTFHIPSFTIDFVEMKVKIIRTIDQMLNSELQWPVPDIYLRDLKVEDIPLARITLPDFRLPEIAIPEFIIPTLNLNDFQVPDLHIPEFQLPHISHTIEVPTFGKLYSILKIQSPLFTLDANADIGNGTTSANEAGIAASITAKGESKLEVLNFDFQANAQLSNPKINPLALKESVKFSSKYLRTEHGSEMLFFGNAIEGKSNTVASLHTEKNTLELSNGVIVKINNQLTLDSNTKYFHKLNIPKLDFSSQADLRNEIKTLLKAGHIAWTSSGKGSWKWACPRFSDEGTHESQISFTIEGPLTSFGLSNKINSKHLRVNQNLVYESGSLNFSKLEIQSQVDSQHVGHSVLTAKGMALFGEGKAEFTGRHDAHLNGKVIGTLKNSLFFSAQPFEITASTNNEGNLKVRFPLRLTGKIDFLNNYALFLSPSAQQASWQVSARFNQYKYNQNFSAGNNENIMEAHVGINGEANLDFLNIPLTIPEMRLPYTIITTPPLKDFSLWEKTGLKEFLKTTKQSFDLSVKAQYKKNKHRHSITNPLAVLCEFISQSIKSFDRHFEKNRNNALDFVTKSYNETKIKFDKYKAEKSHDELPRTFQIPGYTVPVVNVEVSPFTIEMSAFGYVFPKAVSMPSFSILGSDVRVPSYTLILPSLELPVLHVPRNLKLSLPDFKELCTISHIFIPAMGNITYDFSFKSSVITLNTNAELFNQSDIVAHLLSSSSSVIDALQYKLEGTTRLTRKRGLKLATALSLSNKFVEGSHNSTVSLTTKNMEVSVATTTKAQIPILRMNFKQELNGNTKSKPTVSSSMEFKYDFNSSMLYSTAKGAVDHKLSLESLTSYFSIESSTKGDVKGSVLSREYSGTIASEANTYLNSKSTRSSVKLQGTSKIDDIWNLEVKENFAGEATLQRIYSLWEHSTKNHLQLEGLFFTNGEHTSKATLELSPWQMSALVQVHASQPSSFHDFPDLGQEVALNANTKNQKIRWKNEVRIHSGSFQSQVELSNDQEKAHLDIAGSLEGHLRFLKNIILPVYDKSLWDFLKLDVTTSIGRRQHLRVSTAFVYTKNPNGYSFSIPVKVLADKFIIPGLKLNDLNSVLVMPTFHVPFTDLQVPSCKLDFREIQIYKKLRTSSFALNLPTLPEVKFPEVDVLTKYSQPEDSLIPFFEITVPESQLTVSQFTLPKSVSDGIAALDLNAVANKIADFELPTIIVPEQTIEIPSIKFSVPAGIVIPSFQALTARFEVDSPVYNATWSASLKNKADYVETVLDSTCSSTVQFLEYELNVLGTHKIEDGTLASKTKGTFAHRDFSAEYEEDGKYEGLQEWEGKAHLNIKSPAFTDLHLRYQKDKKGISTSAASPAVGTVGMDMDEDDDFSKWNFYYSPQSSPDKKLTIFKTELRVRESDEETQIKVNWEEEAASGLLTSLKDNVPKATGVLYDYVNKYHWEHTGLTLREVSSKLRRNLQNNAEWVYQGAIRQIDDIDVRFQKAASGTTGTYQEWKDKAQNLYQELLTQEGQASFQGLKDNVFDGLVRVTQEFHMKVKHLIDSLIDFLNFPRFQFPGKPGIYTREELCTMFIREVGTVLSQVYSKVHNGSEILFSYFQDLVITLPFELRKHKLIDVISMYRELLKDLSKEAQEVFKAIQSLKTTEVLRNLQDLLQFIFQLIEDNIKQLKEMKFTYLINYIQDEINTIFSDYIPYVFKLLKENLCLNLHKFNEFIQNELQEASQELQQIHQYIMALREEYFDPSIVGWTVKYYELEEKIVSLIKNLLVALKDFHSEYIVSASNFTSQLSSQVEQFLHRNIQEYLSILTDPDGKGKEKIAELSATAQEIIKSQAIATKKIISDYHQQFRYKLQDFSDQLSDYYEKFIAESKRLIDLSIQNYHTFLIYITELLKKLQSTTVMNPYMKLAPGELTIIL
UniProt P08519, 20-2040: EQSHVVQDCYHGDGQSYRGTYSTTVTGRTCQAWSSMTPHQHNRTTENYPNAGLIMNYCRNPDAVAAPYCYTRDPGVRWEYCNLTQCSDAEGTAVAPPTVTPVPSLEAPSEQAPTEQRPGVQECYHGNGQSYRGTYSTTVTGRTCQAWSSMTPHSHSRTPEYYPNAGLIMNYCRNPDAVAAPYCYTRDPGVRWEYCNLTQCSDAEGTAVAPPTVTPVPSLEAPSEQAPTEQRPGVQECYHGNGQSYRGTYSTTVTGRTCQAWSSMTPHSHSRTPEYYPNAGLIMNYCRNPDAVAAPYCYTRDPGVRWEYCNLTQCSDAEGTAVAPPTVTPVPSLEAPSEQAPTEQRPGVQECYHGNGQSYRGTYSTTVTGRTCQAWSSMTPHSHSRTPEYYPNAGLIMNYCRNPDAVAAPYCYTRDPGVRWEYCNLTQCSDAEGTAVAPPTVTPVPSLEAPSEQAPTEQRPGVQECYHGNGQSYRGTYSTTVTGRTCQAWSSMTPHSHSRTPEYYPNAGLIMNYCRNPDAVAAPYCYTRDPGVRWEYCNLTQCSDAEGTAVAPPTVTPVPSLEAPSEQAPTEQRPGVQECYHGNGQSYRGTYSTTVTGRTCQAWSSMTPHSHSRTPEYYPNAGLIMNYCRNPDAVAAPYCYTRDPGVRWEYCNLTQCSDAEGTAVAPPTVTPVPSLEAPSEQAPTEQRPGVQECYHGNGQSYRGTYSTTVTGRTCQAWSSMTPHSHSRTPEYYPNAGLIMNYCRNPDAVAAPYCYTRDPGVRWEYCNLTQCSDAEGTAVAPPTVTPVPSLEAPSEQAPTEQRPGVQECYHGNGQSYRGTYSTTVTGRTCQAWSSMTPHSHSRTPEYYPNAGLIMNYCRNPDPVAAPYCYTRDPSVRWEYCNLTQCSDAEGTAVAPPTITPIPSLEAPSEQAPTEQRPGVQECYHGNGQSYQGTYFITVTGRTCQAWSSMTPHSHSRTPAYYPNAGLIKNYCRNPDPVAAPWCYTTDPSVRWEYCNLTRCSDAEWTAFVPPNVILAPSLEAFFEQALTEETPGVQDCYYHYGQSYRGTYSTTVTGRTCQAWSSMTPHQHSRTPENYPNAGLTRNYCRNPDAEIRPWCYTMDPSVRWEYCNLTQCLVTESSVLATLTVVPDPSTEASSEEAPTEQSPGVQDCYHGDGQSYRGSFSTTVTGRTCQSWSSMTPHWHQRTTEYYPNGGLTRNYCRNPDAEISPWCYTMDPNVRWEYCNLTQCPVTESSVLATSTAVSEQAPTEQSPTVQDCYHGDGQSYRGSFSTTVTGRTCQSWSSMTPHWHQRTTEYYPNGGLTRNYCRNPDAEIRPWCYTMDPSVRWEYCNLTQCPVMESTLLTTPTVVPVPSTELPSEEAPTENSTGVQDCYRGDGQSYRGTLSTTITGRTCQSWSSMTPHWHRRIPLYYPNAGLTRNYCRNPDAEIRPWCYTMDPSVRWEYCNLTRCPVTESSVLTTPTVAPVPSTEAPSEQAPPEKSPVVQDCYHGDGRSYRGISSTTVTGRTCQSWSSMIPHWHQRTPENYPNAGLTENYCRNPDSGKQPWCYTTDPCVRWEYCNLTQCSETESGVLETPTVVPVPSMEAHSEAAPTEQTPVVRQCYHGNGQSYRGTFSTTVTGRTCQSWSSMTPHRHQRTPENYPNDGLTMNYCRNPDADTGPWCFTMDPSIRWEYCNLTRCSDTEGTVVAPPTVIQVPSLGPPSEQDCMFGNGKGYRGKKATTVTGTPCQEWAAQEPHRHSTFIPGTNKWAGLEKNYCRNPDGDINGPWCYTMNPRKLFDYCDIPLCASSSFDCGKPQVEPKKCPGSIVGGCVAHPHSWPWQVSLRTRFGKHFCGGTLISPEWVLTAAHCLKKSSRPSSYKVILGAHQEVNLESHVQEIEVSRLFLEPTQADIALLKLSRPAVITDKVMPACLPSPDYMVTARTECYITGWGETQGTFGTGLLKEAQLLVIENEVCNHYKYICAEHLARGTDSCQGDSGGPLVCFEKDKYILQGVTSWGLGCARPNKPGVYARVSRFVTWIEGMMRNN

This experiment concerns the target apolipoprotein(a), [apo(a)], apolipoproteinB-100, [apoB-100], coupling reaction that generates Lp(a) (Homo sapiens, UniProt P04114+P08519). Description: LPABC screen: lipoprotein(a) biochemical coupling assay, Lp(a) content by ELISA. Particulars: recombinant apo(a) 17-kringle (293 cell media) + HepG2 conditioned media, 67 minutes, 37° C., 0.3 to 50 μM compound; read-out: Lp ABC IC50. The procedure: LPABC Screen The lipoprotein(a), [Lp(a)], biochemical coupling assay (LPABC) is used to characterize inhibitors of the apolipoprotein(a), [apo(a)], apolipoproteinB-100, [apoB-100], coupling reaction that generates Lp(a). Conditioned media from 293 cells (ATCC CRL-1573), permanently transfected with an apo(a) 17-kringle cDNA expression construct (pcDNA-AMP, In Vitrogen, Carlsbad, Calif.) using standard molecular biology techniques, was used as a source of recombinant apo(a) is diluted 1:3 with phosphate buffered saline (PBS) and 90 μL is pipetted into each well of a 96-well plate and placed into a 37° C. incubator for 10 minutes. Twenty microliters of a 0.3 to 50 μM solution of a compound of the present invention in PBS is added to the warmed plate. Ninety microliters of HepG2 (ATCC HB-8065) cell conditioned media diluted 1:3 with PBS is added to the apo(a)/compound mixture and mixed by pipetting up and down 5 times. The reaction is incubated for 67 minutes in a 37° C. incubator. A 100 μL aliquot of the reaction is removed and assayed for its Lp(a) content by an enzyme linked immunosorbent assay (ELISA).
In general terms: ELISA stands for enzyme-linked immunosorbent assay.

What is called IC50 is the concentration at which inhibition is half-maximal. With “N-Biphenyl-2-ylmethyl-N-(3,4-dimethoxy-phenyl)-2-phenylmethanesulfinyl- [Example 143]”, the IC50 was above 15 µM.
